The source of these data is patent US20220259193A1, “KCNT1 INHIBITORS AND METHODS OF USE” (Praxis Precision Medicines, Inc., priority 2019, published 2022).

The chains behind the UniProt entries cited, without tags or fusion partners.
UniProt Q5JUK3, whole entry: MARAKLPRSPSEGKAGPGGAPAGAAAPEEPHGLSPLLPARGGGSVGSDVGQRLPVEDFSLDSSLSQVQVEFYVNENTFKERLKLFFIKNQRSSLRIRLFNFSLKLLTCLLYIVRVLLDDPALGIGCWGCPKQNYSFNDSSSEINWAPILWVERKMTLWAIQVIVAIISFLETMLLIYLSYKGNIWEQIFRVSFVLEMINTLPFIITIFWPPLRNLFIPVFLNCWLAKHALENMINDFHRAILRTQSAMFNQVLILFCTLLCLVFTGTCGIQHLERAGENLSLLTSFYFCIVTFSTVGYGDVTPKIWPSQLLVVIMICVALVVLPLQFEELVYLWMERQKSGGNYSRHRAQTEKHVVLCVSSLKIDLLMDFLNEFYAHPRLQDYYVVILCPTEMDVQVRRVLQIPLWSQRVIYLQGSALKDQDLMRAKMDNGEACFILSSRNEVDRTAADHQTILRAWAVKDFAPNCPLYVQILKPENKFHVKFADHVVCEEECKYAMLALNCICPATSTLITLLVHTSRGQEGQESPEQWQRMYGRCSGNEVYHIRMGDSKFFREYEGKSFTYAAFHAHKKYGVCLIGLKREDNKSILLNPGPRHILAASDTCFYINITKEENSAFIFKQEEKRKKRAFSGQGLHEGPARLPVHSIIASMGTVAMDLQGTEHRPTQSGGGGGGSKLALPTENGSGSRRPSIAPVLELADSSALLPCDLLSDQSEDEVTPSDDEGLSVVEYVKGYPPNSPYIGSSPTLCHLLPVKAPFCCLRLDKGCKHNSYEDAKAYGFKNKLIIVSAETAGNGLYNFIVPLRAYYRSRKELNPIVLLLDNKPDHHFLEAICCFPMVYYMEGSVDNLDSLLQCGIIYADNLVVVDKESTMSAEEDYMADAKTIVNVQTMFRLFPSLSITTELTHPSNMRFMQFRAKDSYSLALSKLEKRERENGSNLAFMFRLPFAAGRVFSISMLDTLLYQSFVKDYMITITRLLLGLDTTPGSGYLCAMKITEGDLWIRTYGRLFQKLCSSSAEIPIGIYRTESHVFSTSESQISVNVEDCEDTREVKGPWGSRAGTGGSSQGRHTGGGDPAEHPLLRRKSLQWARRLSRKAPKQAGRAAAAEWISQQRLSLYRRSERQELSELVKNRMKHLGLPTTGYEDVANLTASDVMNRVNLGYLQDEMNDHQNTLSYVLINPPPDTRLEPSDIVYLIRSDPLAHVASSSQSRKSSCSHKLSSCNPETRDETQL

pIC50: −log10 of the molar value.

This assay addresses KCNT1 (KNa1.1, Slack) (Homo sapiens, UniProt Q5JUK3). Briefly: KCNT1 patch clamp assay (SyncroPatch 384PE automated patch clamp). The format is cell-based. As to conditions: read-out: KCNT1-WT IC50; tetracycline inducible HEK-TREX cell line; perforated patch; step from −80 mV to 0 mV; room temperature. (Patch clamp records ionic current or voltage across a cell membrane.)

The term pIC50 denotes −log10 of the IC50, conventionally taken in molar units. For `Cc1cccc(-c2noc(C(C)NC(=O)c3cc(C(F)(F)F)nn3CC(F)F)n2)c1` (single isomer, unassigned), the pIC50 was above 6.00.
